Laboratory results from BindingDB's records for doi:10.1021/jm060519r (Human Biomolecular Research Institute, 2006).

Molecular target: T1, Cytochrome P450 2A6 (Homo sapiens, UniProt P11509)
T1 sequence (P11509 whole entry): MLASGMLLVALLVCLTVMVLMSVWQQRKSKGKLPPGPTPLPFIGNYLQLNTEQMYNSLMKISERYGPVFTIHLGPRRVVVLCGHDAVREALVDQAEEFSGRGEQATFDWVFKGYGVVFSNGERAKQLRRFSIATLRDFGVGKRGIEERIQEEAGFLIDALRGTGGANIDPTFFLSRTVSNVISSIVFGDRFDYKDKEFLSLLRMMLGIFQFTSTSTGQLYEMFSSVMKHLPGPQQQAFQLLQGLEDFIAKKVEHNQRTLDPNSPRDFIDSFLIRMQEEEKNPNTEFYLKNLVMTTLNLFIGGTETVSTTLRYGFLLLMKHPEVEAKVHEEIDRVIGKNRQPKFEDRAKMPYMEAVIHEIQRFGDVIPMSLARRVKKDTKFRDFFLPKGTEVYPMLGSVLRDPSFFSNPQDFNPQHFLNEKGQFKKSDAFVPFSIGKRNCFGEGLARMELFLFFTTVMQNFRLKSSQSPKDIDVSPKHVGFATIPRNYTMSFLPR
Test: CYP2A6 Inhibition Assay
Procedure: To measure CYP2A6 activity, coumarin 7-hydroxylation was determined. […] The amount of product formed was obtained by interpolation from a standard curve of 7-hydroxycoumarin. The IC50 values were determined using GraphPad Prism version 3.0 and are reported as an average of three experiments. Apparent Ki values were determined from the IC50 values by employing the equation of Cheng and Prusoff.

For `NCc1ccc(-c2cccnc2)s1` [US8609708, 31], which Ki is on record?
Its Ki is 0.08 µM.
